The species entered for the assay is Homo sapiens. Briefly: Selectivity index, ratio of IC50 for FAAH (unknown origin) to IC50 for human MAGL.

SMILES strings stand for the structures.

Consider one compound from ChEMBL document CHEMBL4680096, “Structural Optimization of 4-Chlorobenzoylpiperidine Derivatives for the Development of Potent, Reversible, and Selective Monoacylglycerol Lipase (MAGL) Inhibitors” (J Med Chem, 2016).

As to `O=C(CCCCCc1ccc(-c2ccccc2)cc1)OCc1ccc2c(c1)OCO2`, the Ratio IC50 is 3.
